# According to PubChem BioAssay AID2676 (National Center for Advancing Translational Sciences (NCATS), 2010):
# Chains of the proteins cited; added tags and fusions are not shown.
# UniProt Q9HBX9, whole entry: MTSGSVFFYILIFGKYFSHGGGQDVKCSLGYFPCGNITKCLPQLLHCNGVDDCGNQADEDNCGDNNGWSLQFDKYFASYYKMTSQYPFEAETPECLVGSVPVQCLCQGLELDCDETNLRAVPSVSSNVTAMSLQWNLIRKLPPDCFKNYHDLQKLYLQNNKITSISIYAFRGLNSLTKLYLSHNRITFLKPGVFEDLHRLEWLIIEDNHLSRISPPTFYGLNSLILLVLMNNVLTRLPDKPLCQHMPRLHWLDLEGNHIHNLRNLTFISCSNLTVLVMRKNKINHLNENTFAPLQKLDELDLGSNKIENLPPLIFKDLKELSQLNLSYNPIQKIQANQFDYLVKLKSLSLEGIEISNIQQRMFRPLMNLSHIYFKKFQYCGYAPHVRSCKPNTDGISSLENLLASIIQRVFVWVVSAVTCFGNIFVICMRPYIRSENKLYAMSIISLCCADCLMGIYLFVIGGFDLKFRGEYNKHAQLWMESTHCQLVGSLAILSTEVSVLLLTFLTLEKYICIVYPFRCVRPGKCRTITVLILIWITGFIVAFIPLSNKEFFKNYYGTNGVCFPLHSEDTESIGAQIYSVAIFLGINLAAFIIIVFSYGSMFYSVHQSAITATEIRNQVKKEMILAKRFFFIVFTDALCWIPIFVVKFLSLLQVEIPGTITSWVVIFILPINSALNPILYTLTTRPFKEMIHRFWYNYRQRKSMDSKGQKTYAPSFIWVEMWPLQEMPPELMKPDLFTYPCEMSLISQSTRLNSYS
# “And” between values parts separate entries of the source, which are not always exact repeats. Equal entries are not always repeated. The list shows a part of the results, in another mix than the full data. Some of these compounds have results that are not shown, active ones among them. The source made the active and inactive calls. Calls come from the whole dose curve; as a rule, active = well fitted activation curve with a large enough effect; inconclusive = small, poorly fitted or top-dose-only effect; inactive = flat fitted curve, though single readings scatter.
# Target: Relaxin receptor 1 (Homo sapiens) (UniProt Q9HBX9)
# Test: qHTS Assay for Agonists of the Relaxin Receptor RXFP1; note: nearly all actives have a fitted effect of over 60% in size
# Conditions: HEK293T-RXFP1 cAMP TR-FRET, 30 min, percent of porcine relaxin response, buffer zero; at 57.5 µM (top of the series)
# Text: NIH Chemical Genomics Center [NCGC] NIH Molecular Libraries Probe Production Centers Network [MLPCN] MLPCN Grant: R03 MH085705-01A1 Assay Submitter (PI): Alexander Agoulnik NCGC Assay Overview: The relaxin hormone is involved in the variety of biological functions in normal tissues and diseases. The role of relaxin is well-established in female reproduction and parturition, mammary gland and endometrial development, maintenance of myometrial quiescence during pregnancy. Relaxin signaling through its G protein-coupled receptor (GPCR) RXFP1 results in ECM remodeling through regulation of collagen deposition, cell invasiveness, proliferation and overall tissue homeostasis. […] Recombinant human relaxin (rhRlx) is currently being tested in clinical trials as a protective agent in congestive heart failure, in treating severe preeclampsia, and as an anti-fibrotic agent in systemic sclerosis. Upon relaxin binding RXFP1 activation leads to the activation of adenylate cyclase (AC) via Gs. cAMP will activate PKA, which phosphorylates many signaling proteins. Thus, detection of cAMP increase is an easy and reliable indication of relaxin receptor activation. To screen for agonists of the relaxin receptor, a HEK293T cell line stably transfected with RXFP1 was used. RXFP1 activation was assayed by changes in cAMP levels as detected with a time-resolved fluorescence energy transfer (TR-FRET) cAMP detection kit.
# NCGC Assay Protocol Summary: This is a cell-based assay for cAMP second messenger response to screen for agonists of the RXFP1 receptor. The assay was conducted in the presence of a PDE4 inhibitor (Ro 20174). The cells were lysed and the cAMP levels were measured with a TR-FRET cAMP kit. Presence of cAMP in the cell lysate disrupts binding between the cryptate-labeled anti-cAMP and d2-labeled cAMP pair, leading to a decrease in the TR-FRET signal. Data were normalized to the controls for basal activity (buffer only) and 100% activity (29 nM porcine relaxin). The EC50 values were determined from concentration-response data modeled with the standard Hill equation 1536-well assay protocol for the HEK293 RXFP1 cAMP assay: (1) Add 3 ul HEK293 RXFP1 cell culture. 2000 cells/well in DMEM/F12, 10% FBS, 1x Pen/Strep (dispensed offline with MultiDrop Combi). (2) Incubate 16-24 hr at 37C, 5% CO2. (3) Add 1 ul 400uM Ro20174 in DPBS, 0.05% BSA, 0.005% Tween 20. (3) Add 23 nl compounds in DMSO solution. Final concentration was 0.5 - 58 uM. (4) Incubate 30 min at 37C, 5% CO2. (5) Add 1 ul cAMP-d2 in lysis buffer (HTRF cAMP HiRange kit, CisBio). (6) Add 1 ul anti-cAMP antibody-cryptate in lysis buffer (HTRF cAMP HiRange kit, CisBio). (7) Incubate 30 min at room temperature. (6) Detect the assay plate in a ViewLux plate reader (PerkinElmer) with Ex=320 nm, Em1=615 nm and Em2=665 nm. Keywords: relaxin, RXFP1, RXFP2, G-protein coupled receptor, cAMP, agonist, high throughput screening, MLSMR, MLSCN, NIH Roadmap, qHTS and NCGC
# % is set by controls: 0 for no effect and ±100 for the full control effect.
row,Structure (SMILES),activation
1,CCCCOc1ccccc1C(=O)NCC1(N(C)C)CCCCC1,inactive: -2.09%
2,Cc1ccccc1C(=O)NCC1(N2CCCCC2)CCCCC1,inactive: 3.34%
3,CN(C)C1(CNC(=O)c2ccccc2[N+](=O)[O-])CCCCC1,inactive: 3.28%
4,CN(C)c1ccc(C(=O)NCC2(N(C)C)CCCCC2)cc1,inactive: -0.58%
5,CN(C)C1CCCC1OC(=O)C(O)(c1ccccc1)c1ccccc1 (centres undefined),inactive: 1.77%
6,COc1ccc(C(=O)NCC2(N(C)C)CCCCC2)cc1,inactive: -17.3%
7,CCOc1cccc(C(=O)NCC2(N(C)C)CCCCC2)c1,inactive: -0.731%
8,CCN1CCCC(OC(=O)C2(O)c3ccccc3C=Cc3ccccc32)C1 (centres undefined),inactive: -0.0317%
9,Cc1cc(C(=O)NCC2(N3CCCCC3)CCCCC2)ccc1[N+](=O)[O-],inactive: 0.472%
10,O=C(NCC1(N2CCCCC2)CCCCC1)c1cccc(Br)c1,inactive: -0.64%
11,C=CCN1CCN(CCOC(=O)C(O)(c2ccccc2)c2ccccc2)CC1,inactive: 4.11%
12,O=C(NCC1(N2CCCCC2)CCCCC1)c1cc(F)c(F)cc1Cl,inactive: -1.46%
13,CN1[C@@H]2CC[C@H]1CC(OC(=O)C(O)(c1ccccc1)c1ccccc1)C2 (some centres undefined),inactive: 3.53%
14,O=C(NCC1(N2CCCCC2)CCCCC1)c1cc([N+](=O)[O-])ccc1Cl,inactive: 0.533%
15,Cc1ccc(C(=O)NCC2(N3CCCCC3)CCCCC2)cc1,inactive: 0.355%
16,CN(C)C1(CNC(=O)c2ccccc2F)CCCCC1,inactive: 0.883%
17,CCN(CC)CC(C)C(C)OC(=O)C(O)(c1ccccc1)c1ccccc1 (centres undefined),inactive: -3.15%

row,Structure (SMILES),activation
1,CN(C)C1(CNC(=O)c2cccc(Cl)c2)CCCCC1,inactive: 0.151%
2,COc1cc(SC)ccc1C(=O)NCC1(N(C)C)CCCCC1,inactive: -0.441%
3,CC(C)N1C(=O)CC2(CCN(CCOC(=O)C(O)(c3ccccc3)c3ccccc3)CC2)C1=O,inactive: 3.7%
4,CC(C)COc1ccc(C(=O)NCC2(N(C)C)CCCCC2)cc1,inactive: 0.253%
5,COc1cccc(C(=O)NCC2(N3CCOCC3)CCCCC2)c1,inactive: 0.912%
6,O=C(OC1CN2CCC1CC2)C(CO)(c1ccccc1)c1ccccc1 (centres undefined),inactive: -0.951%
7,CC(C)Oc1ccc(C(=O)NCC2(N(C)C)CCCCC2)cc1,inactive: -0.563% and inactive: 0%
8,CN(C)c1cccc(C(=O)NCC2(N(C)C)CCCCC2)c1,inactive: 0.852%
9,Cc1cccc(C(=O)NCC2(N(C)C)CCCCC2)c1,inactive: 0.556%
10,COc1cc(C(=O)NCC2(N(C)C)CCCCC2)cc(OC)c1OC,inactive: 0.415%
11,COc1ccc(Br)c(C(=O)NCC2(N3CCCCC3)CCCCC2)c1,inactive: -0.156%
12,COc1cc(C(=O)NCC2(N(C)C)CCCCC2)c([N+](=O)[O-])cc1OC,inactive: 0.107%
13,CN(C)C1(CNC(=O)c2ccc(Br)cc2)CCCCC1,inactive: 4.46%
14,O=C(NCC1(N2CCCCC2)CCCCC1)c1cccc(Cl)c1,inactive: -0.413%
15,COc1cccc(C(=O)NCC2(N3CCCCC3)CCCCC2)c1,inactive: -1.14%
16,COc1ccc(Cl)cc1C(=O)NCC1(N(C)C)CCCCC1,inactive: 0.177%
17,COc1ccc(C(=O)NCC2(N(C)C)CCCCC2)cc1Cl,inactive: 0.279%
